This series deals with normal cell lines; cells infected with Herpes simples (DNA virus).

`NC(=O)c1ncn([C@@H]2O[C@H](CO)[C@@H](O)[C@H]2O)n1` [Ribavirin, 1-β-D-ribofuranosyl-1,2,4-triazole-3-carboxamide] gave a cytotoxic range of 200 to 1000 µg/mL and a cytotoxicity of 50 µg/mL.
